From PubChem BioAssay AID1347075 (National Center for Advancing Translational Sciences (NCATS), 2019)
In all, about 400,000 compounds went through this assay and about 5,500 (1.4%) were called active. Only results without a clear call are listed here; the source files them as inconclusive. The call rests on the fitted dose curve; in most records, active means well fitted cell-killing curve with a large enough effect; inconclusive means small, poorly fitted or top-dose-only effect, or effect the other way; inactive means flat fitted curve, though single readings scatter.

assay: qHTS assay for MDR1-selective chemotherapeutics: Primary screen using the parental adenocarcinoma cell KB-3-1; conditions: KB-3-1 viability, CellTiter-Glo ATP luminescence, 72 h; activity change, negative = cytotoxic: at 46.1 µM (top of the series); further: nearly all actives have a fitted effect of over 60% in size
Source text: A prime difficulty in effectively treating cancer is the development of cellular resistance to multiple structurally unrelated anticancer drugs, a phenomenon known as multidrug resistance (MDR). […] Numerous strategies to overcome P-gp-mediated MDR have been explored, including the design of drugs that evade recognition and efflux, and development of inhibitors to block efflux and restore drug accumulation. […] An alternative approach is to exploit resistance by identifying drugs that target MDR cells over the non-resistant parental cells from which they were selected. […] The development of MDR1-selective agents represents a new strategy for resolving multidrug resistance, as it remains a long-standing clinical challenge for cancer chemotherapy.
Our goal is to identify compounds that selectively kill P-gp-expressing MDR cells. We will identify MDR1-selective compounds by comparing toxicity of compounds in the screening library against parental, drug-naive (KB-3-1) adenocarcinoma cells as well as their drug-selected MDR sub-line (KB-V1). The differential toxicity of compounds against these two cell lines will be used to identify MDR1-selective compounds, whose cytotoxicity is potentiated, rather than diminished, by P-gp expression. This assay will be utilized to conduct a quantitative high-throughput screen (qHTS) in collaboration with the NIH Chemical Genomics Center to identify selective agents, and probe hits arising from the screen will be validated using secondary assays and characterized through a well-established follow-up research program. This screen was run against the entire NCGC library collection of about 400,000 compounds.
NIH Molecular Libraries Probe Production Network [MLPCN]
NIH Chemical Genomics Center [NCGC]
PI: Michael Gottesman PhD, National Cancer Institute, NIH
Briefly, 5 microL of media containing either KB-3-1 cells (columns 1-2, 4-48) are dispensed into Greiner white, treated solid-bottom 1536-well assay plates (media-only control is added to column 3). Compounds are then transferred via Kalypsys pin tool equipped with 1536-pin array (10 nL slotted pins, V&P Scientific, San Diego, CA). Following addition of compound, the plates are incubated at 37 degrees C for 72 hours. CellTiter-Glo (2.5 µL/well) is then added, and the plates are read in a ViewLux reader (Perkin-Elmer, clear luminescence filter, 1 second exposure, 1x binning) following a 10 minute incubation. All cells are dispensed in DMEM phenol-red free media containing 10% FBS.
Library plates were screened starting from the lowest and proceeding to the highest concentration. Vehicle-only plates, with DMSO being pin-transferred to columns 5-48, will be inserted uniformly at the beginning and the end of each library in order to monitor and record any shifts in the background, which can be affected by reagent dispensers or loss in enzyme activity over time. Screening data will be corrected, normalized, and concentration-effect relationships will be derived by using publicly-available NCGC, NCATS curve fitting algorithms (http://ncgc.nih.gov/pub/openhts).
On the % scale 0 is the no-effect control and ±100 the full control effect; potency means the concentration at half of the fitted maximal effect.

Row | SMILES | Potency | activity change, negative = cytotoxic
1 | CCc1nc2c(n1)c1c(non1O)c1c2no[n+]1[O-] | inconclusive: 20.6 µM | 
2 | NC(=O)c1cc([N+](=O)[O-])cc([N+](=O)[O-])c1N | inconclusive: 32.6 µM | 
3 | O=[N+]([O-])c1cc2c(cc1[N+](=O)[O-])OCO2 | inconclusive: 0.231 µM | 
4 | O=c1c2cc([N+](=O)[O-])ccc2[nH]c2c([N+](=O)[O-])cc([N+](=O)[O-])cc12 | inconclusive: 5.17 µM | 
5 | N#C/C(=C\c1ccc(N(CCBr)CCBr)cc1)C(N)=O | inconclusive: 11.6 µM | 
6 | CCC1=CC2Cc3nc4ccc(Cl)cc4c(N)c3C(C1)C2 (stereo not drawn) | inconclusive: 23.1 µM | 
7 | Cc1ccc2nc3c(c(C)c2c1)CC(C(Cl)Cl)S3 (stereo not drawn) |  | inconclusive: -49.9%
8 | CSc1ccc(Nc2c([N+](=O)[O-])cc([N+](=O)[O-])cc2[N+](=O)[O-])cc1 | inconclusive: 25.9 µM | 
